The source of these data is patent publication US20190091259A1, “Selective Chemotherapy Treatments and Diagnostic Methods Related Thereto” (Emory University, priority 2014, published 2019).

In the assay the test system is SCLC cell lines. The assay can be described thus: Short-term MTS cytotoxicity assay in a panel of 9 SCLC cell lines. As to conditions: especially at concentrations ≥20 μmol/L. (Tetrazolium dyes change colour on reduction, which living cells bring about.)

With `C[C@]1(c2nc3c(C(N)=O)cccc3[nH]2)CCCN1` [veliparib], the “single-agent activity in several cell lines (H187, H146, DMS153)” value is on record as “modest activity”.
